Measured values taken from ChEMBL document CHEMBL1926558, “Searching for the Multi-Target-Directed Ligands against Alzheimer's disease: discovery of quinoxaline-based hybrid compounds with AChE, H₃R and BACE 1 inhibitory activities” (Bioorg Med Chem, 2011).

Sequences of proteins named here, by UniProt entry; tags and fusion partners are left off. A change or cut given only in a name is not applied to a line headed by its entry.
UniProt Q9Y5N1: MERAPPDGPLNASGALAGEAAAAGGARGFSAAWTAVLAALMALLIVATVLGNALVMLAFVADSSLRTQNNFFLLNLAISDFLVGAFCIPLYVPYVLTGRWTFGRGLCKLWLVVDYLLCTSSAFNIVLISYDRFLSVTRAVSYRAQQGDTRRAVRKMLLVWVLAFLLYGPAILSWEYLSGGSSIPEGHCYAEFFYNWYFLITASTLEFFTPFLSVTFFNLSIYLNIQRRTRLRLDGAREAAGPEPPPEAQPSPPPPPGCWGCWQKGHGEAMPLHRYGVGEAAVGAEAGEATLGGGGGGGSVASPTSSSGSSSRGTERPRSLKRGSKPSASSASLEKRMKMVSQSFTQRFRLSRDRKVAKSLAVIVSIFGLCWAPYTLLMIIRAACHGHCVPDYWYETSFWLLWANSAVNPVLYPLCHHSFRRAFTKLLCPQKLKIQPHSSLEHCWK

Biological target: Histamine H3 receptor (Homo sapiens, UniProt Q9Y5N1)
Test: Antagonist activity at histamine H3 receptor expressed in HEK293 cells co-transfected with pCRE-Luc gene assessed as inhibition of forskolin/histamine-induced cAMP accumulation at 1 uM after 5 hrs by luciferase reporter gene assay
Format: functional, cell-based

## Nc1nc2ccccc2nc1NCCCOc1ccc(CN2CCCCC2)cc1
  inhibition: 40.5%

## Nc1nc2ccccc2nc1NCCOc1ccc(CN2CCCCC2)cc1
  inhibition: 82.3%

## Nc1nc2ccccc2nc1C(=O)Nc1ccc(CN2CCCCC2)cc1
  inhibition: 34.6%

## Nc1nc2ccccc2nc1C(=O)NC1CCN(Cc2ccccc2)CC1
  inhibition: 1.8%

## CN1CCN(Cc2ccc(OCCNc3nc4ccccc4nc3N)cc2)CC1
  inhibition: 7.4%

## Nc1nc2ccccc2nc1NCC(=O)Nc1ccc(CN2CCCCC2)cc1
  inhibition: 15%

## Nc1nc2ccccc2nc1NC(=O)C1CCN(Cc2ccccc2)CC1
  inhibition: 0.6%

## Nc1nc2ccccc2nc1/N=C/c1ccc(CN2CCCCC2)cc1
  inhibition: 0.5%

## Nc1nc2ccccc2nc1NCC(=O)Nc1ccc(CN2CCCC2)cc1
  inhibition: 16.9%

## CCN(CC)Cc1ccc(OCCNc2nc3ccccc3nc2N)cc1
  inhibition: 65.5%

## Nc1nc2ccccc2nc1NCc1ccc(CN2CCCCC2)cc1
  inhibition: 0.2%

## Nc1nc2ccccc2nc1CNc1ccc(CN2CCCCC2)cc1
  inhibition: 78.2%
